Measured values: patent US8378100B2, “Phosphonate derivatives as autotaxin inhibitors” (University of Virginia Patent Foundation, priority 2008, dated 2013)

Tests used:
recombinant human ATX = recombinant human ATX (Homo sapiens, UniProt Q13822); assay: Choline detection assay for ATX
Procedure: The phosphonate derivatives were tested in choline detection assay for ATX inhibition. The ATX activity assay was conducted in 0.1 ml, buffer: (in mM: Tris-HCl 100, pH9, NaCl 150, MgCl2 5, CoSO4 0.03, 0.05% Triton X-100), 1 mM 18:1 LPC, using recombinant human ATX with or without test compounds; incubation was for 16 hours at 37° C. The released choline was detected as follows: Samples were mixed with 0.15 ml of 50 mM TrisHCl containing 2.7 mM TOOS(N-ethyl-N-2-hydroxy-3-sulfopropyl)-m-toluidine, 2.7 mM 4-AAP (4-aminoantipyrine), 47.7 U/ml horseradish peroxidase, 18 U/ml choline oxidase, and 5 mM MgCl2. After 30 min incubation at 37° C., light absorbance (550 nm) was determined, and the amount of choline release was calculated from a standard curve.
The ATX activity was measured in the presence of the test compounds under different concentrations (100 μM, 10 μM and 1 μM). The ATX activity without TEST compounds was used as the standard (100% activity). Some β-hydroxy phosphonate derivatives inhibited ATX activity at only the highest concentration tested. […] These two compounds were synthesized from protected L-tyrosine and they are diastereomers. The less polar isomer, f17, (also known as VPC8a202) was able to inhibit 73% of ATX activity at 1 μM.

[1] = biological target: Human recombinant autotaxin (ATX) (Homo sapiens, UniProt Q13822); assay: Kinetic study of f17 inhibition of ATX (choline release at various LPC concentrations); assay type: biochemical; settings: +VPC8a202 (0.5 μM), activity as A555
Procedure: FIG. 2 and FIG. 3 illustrate the kinetics of inhibition of ATX activity with test compound f17 (VPC8a202). The initial rate of recombinant ATX activity was measured calorimetrically at different concentrations of LPC in presence and absence of 0.5 μM VPC8a202. Activity was expressed as the release of choline during 18 hours and it is represented by the absorbance of the product at 555 nm (A555). Each point is the average of three measurements (FIG. 2). Consumed substrate was less than 10% in every case thus ensuring an initial rate of reaction. In FIG. 3, the results were fitted to a straight line by linear regression. The apparent Km for LPC was about 588 μM.
Human recombinant autotaxin (ATX) was subcloned into the mammalian expression vector pcDNA3.1/V5His-TOPO (Invitrogen) and expressed as a C-terminus V5- and 6×His-tagged protein in HEK-293 cells using PolyFect® (Qiagen) as a transfection reagent. […] ATX activity was measured essentially as described by Umezu-Goto M., et al., J Cell Biol, 158: 227-233, 2002, by determining the release of choline after incubation at 37° C. for 18 h in 0.1 ml of a buffer consisting of 100 mM Tris-HCl, pH 9.0, 500 mM NaCl, 5 mM MgCl2, 0.03 mM CoCl2, 0.05% Triton X-100, 0.5 μM of f17 and various concentrations of oleoyl-LPC (lysophosphatidylcholine, Avanti Polar Lipids, Alabaster, Ala.). […]

SMILES: CCCCCCCCCCCCCCCC(=O)N[C@@H](Cc1ccc(OCc2ncc(C)c(OC)c2C)cc1)C(O)CP(=O)(O)O (single isomer, unassigned) [f18]
- ATX activity (%) 1 μM (recombinant human ATX; Table 1 (f1-f34), 1 μM test compound, activity without test compound = 100%): 27%
- ATX activity (%) 10 Mm (recombinant human ATX; Table 1 (f1-f34), 10 μM test compound as printed, activity without test compound = 100%): 13%
- ATX activity (%) 100 μM (recombinant human ATX; Table 1 (f1-f34), 100 μM test compound, activity without test compound = 100%): 6%
- inhibition of ATX (in words) (recombinant human ATX; at 1 μM): significant inhibition
- inhibition of ATX activity (recombinant human ATX; at 1 μM): 73%
- Vmax ([1]; linear regression on the double reciprocal plot): 1.50
- Vmax ([1]; non-linear regression on the direct plot): 1.41
